# Test system: P37840
# Assay: SEC; quantitative SEC under bulk conditions, Superdex 75 10/300, 50 μl of the AF488/AF647-labeled mixture (70 μM) at different incubation times, absorbance at 280, 488 and 647 nm; oligomers elute in the void volume (7 ml), monomer at 9.3 ml
substance,measurement,value
A90C mutant variant of α-synuclein labeled with Alexa Fluor 488 or Alexa Fluor 647,mass fraction of soluble aggregates,very low (≤5%)
